Assay results published in US9186391B2, “Cyclic peptide inhibitors of lysine-specific demethylase 1” (MUSC FOUNDATION FOR RESEARCH DEVELOPMENT, priority 2013, dated 2015).

Biological target: purified recombinant LSD1 (Homo sapiens, UniProt O60341)
Conditions: 10000.0

% Inhib. of LSD1 at 10 μM: 95%
SMILES: N=C(NCCCNCCCCCCCNCCCNC(=N)NC(=N)NCCC(c1ccccc1)c1ccccc1)NC(=N)NCCC(c1ccccc1)c1ccccc1 [compound 3, verlindamycin, reference compound]
